US20260382572A1, “TREATMENT OF FRONTOTEMPORAL DEMENTIA OR FRONTOTEMPORAL LOBAR DEMENTIA” (published 2026)

Columns and labels:
[1] = tested on: hyperphosphorylated tau (hTauP301L); experiment: hTauP301L FTD model, adult mice: hyperphosphorylated tau by immunofluorescence in hippocampus; settings: adult (3-4 months) mice; oral once a day 35 days; DG, CA1 and CA3; 50 mg/kg (FIG. 7)
Procedure: (§1) FIG. 7. Compound 1 reduces hyperphosphorylated tau species in adult mice with hTauP301L tauopathy after 35 days oral administration (50 mg/kg/day). (A). Representative images of hyperphosphorylated tau intensity measured by AT8 and AT180 antibodies in three different regions of the hippocampus (GD, CA3 and CA1) (n=11-12). (B) Quantification AT8 intensity, normalized to CA3 intensity of Sham animals. (C) Quantification of AT180 intensity, normalized to CA3 intensity of Sham animals (n=9-12).
(§2) Immunofluorescence labelling in in vitro and in vivo samples was performed as described in [Luengo, Enrique et al. “Implication of type 4 NADPH oxidase (NOX4) in tauopathy.” Redox biology vol. 49 (2022): 102210. doi:10.1016/j.redox.2021.102210].
In vivo hTau301L model was induced by stereotaxic injection of AAV-hTauP301L (AAV-hTau) particles as described in [Luengo, Enrique et al. “Implication of type 4 NADPH oxidase (NOX4) in tauopathy.” Redox biology vol. 49 (2022): 102210. doi:10.1016/j.redox.2021.102210]. […]
(§3) Example 2.5. […] After 35 days treatment, hyperphosphorylated tau levels were evaluated by immunofluorescence and by WB in soluble and insoluble in sarkosyl fractions. […]
Hyperphosphorylated tau levels measured with the antibodies AT8 (p-Ser202/p-Thr205) and AT180 (p-Thr231) were analysed by immunofluorescence in fixed postmortem brain slices of treated mice (FIG. 7A).

[2] = tested on: hyperphosphorylated tau (hTauP301L); experiment: hTauP301L FTD model, aged mice: hyperphosphorylated tau by immunofluorescence in hippocampus; settings: 35 days
Procedure: as §1, with “10.” for “7.”, “species and improves cognitive behaviour” for “species”, “aged (16-18 months old)” for “adult”, “after” for “after 35”, “(n=12).” for “(n=11-12).”, “animals. (D) Experimental protocol of T-maze alternation test and (E) Object Location test (OLT). (F) Average of the percentage of success in seven independent attempts (n=6).” for “animals (n=9-12).”
as §2
In vivo hTau301L model was induced by stereotaxic injection of AAV-hTauP301L (AAV-hTau) particles as described in [Luengo, Enrique et al. “Implication of type 4 NADPH oxidase (NOX4) in tauopathy.” Redox biology vol. 49 (2022): 102210. doi:10.1016/j.redox.2021.102210]. Control animals were injected with AAV-GFP. Evaluation of hyperphosphorylated tau in sarkosyl soluble and insoluble fractions; microgliosis; AT8 and AT180 by immunofluorescence; and cognitive test were performed as described previously [Luengo, Enrique et al. “Implication of type 4 NADPH oxidase (NOX4) in tauopathy.” Redox biology vol. 49 (2022): 102210. doi:10.1016/j.redox.2021.102210].
Oral administration of Compound 1 at different dosages (20 mg·kg^−1 and 50 mg·kg^−1) was administered embedded in gelatine. The compound was given in a mixture of 10% gelatine from porcine skin and 10% sucralose in water, heated in a microwave oven. […]
Example 2.6. […] 35 Days of treatment with a single oral dose of Compound 1 at 50 mg/kg reduced hyperphosphorylated tau levels induced by hTauP301L, measured by AT8 and AT180 antibodies in DG, CA3 and CA1 regions of the hippocampus (FIG. 10A-C). […]

[3] = tested on: adult mice with hTauP301L tauopathy; experiment: hTauP301L FTD model, adult mice: Object location test (OLT); settings: 35 days
Procedure: FIG. 9. Compound 1 prevents cognitive decline in spatial memory behavioural paradigms in adult mice with hTauP301L tauopathy after 35 days oral administration (20 mg/kg or 50 mg/kg/day). (A) Representation of T-maze alternation test and (B) Object Location test (OLT). (C) Average percentage of success in seven independent attempts (n=14-19). (D) Discrimination index in the OLT assay (AAV-eGFP, n=15; AAV-hTau, n=10; AAV-hTau+Compound 1 at 20 mg/kg, n=5; AAV-hTau+Compound 1 at 50 mg/kg, n=8).
In vivo hTau301L model was induced by stereotaxic injection of AAV-hTauP301L (AAV-hTau) particles as described in [Luengo, Enrique et al. “Implication of type 4 NADPH oxidase (NOX4) in tauopathy.” Redox biology vol. 49 (2022): 102210. doi:10.1016/j.redox.2021.102210]. Control animals were injected with AAV-GFP. Evaluation of hyperphosphorylated tau in sarkosyl soluble and insoluble fractions; microgliosis; AT8 and AT180 by immunofluorescence; and cognitive test were performed as described previously [Luengo, Enrique et al. “Implication of type 4 NADPH oxidase (NOX4) in tauopathy.” Redox biology vol. […]
as §3
Spatial memory was measured using the T-maze (FIG. 9A) and the Object localization tests (OLT; FIG. 9B).

[4] = tested on: primary rat glial cultures; experiment: Anti-neuroinflammatory effect: % reduction of nitrites in LPS-stimulated primary rat glial cultures (Griess/MTT); settings: Table 2
Procedure: Screening for anti-inflammatory properties in primary rat glial cultures was performed according to the protocol described previously [Gameiro, Isabel et al. “Discovery of the first dual GSK3β inhibitor/Nrf2 inducer. A new multitarget therapeutic strategy for Alzheimer's disease.” Scientific reports vol. 7 45701. 31 Mar. 2017, doi:10.1038/srep45701]. All compounds were evaluated at the single concentration of 3 μM. Neuroinflammation was quantified as the value of released nitrates, measured by the Griess method, normalized by the number of viable cells measured by the MTT method [Mosmann, T. “Rapid colorimetric assay for cellular growth and survival: application to proliferation and cytotoxicity assays.” Journal of immunological methods vol. 65, 1-2 (1983): 55-63. doi:10.1016/0022-1759(83)90303-4]. LPS alone was considered 100% inflammation.

[5] = aged (16-18 months) mice, oral 50 mg/kg, DG, CA3 and CA1

COc1ccc2c(c1)CC(c1c[nH]c3ccc(OC)cc13)N2 (centres unmarked)
AT8 fluorescence [1]: significantly reduced
AT180 fluorescence [1]: significantly reduced
hyperphosphorylated tau levels, AT8 [2, 5]: reduced hyperphosphorylated tau levels
hyperphosphorylated tau levels, AT180 [2, 5]: reduced hyperphosphorylated tau levels
hyperphosphorylated tau (summary) ([2]; young and aged subjects, 50 mg/kg oral once a day): significant reduction of hyperphosphorylated tau
OLT discrimination index ([3]; oral 50 mg/kg): total recovery was achieved
OLT discrimination index ([3]; oral 20 and 50 mg/kg): dose-dependent improvement
anti-neuroinflammatory activity (in words) [4]: best anti-neuroinflammatory activity
